Results on one compound are retold here after US20240122930A1, “INTEGRIN INHIBITORS AND USES THEREOF IN COMBINATION WITH OTHER AGENTS” (Pliant Therapeutics, Inc., priority 2022, published 2024).

For the test, the system named is Type I Collagen gene Col1a1 expression. Description: Precision cut lung slices, acute bleomycin exposure, Col1a1 expression. It counts as cell-based, mice (C57BL/6).

`Cc1cc(C)n(-c2cccc([C@H](CC(=O)O)CN3CC[C@H](CCc4ccc5c(n4)NCCC5)C3)c2)n1` [first pan-αV small molecule inhibitor, (3S)-3-[3-(3,5-dimethyl-1H-pyrazol-1-yl)phenyl]-4-{(3S)-3-[2-(5,6,7,8-tetrahydro-1,8-naphthyridin-2-yl)ethyl]-1-pyrrolidinyl}butanoic acid]: the “Type I Collagen gene Col1a1 expression, normalized to DMSO control slices” value was “decreased Type I Collagen gene Col1a1 expression comparably”.
